What is called Ki is the dissociation constant of the complex between target and ligand, obtained from inhibition or displacement.

Chains of the proteins cited; added tags and fusions are not shown.
UniProt P29275, whole entry: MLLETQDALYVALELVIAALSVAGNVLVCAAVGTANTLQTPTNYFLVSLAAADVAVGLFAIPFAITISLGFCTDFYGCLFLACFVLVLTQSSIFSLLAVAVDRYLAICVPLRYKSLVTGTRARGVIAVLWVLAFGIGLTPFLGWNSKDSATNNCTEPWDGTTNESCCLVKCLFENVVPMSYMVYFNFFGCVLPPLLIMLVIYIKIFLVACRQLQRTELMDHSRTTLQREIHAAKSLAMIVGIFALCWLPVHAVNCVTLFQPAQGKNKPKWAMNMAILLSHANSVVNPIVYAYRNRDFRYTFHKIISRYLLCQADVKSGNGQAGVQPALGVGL

For 1 compound, Ki results are on record in US6664252B2, “4-aminopyrrolo[2,3-d]pyrimidine compounds specific to adenosine A2a receptor and uses thereof” (OSI Pharmaceuticals, Inc., priority 1999, dated 2003).

This assay has as its target human A2b receptor subtype (Homo sapiens, UniProt P29275). The note with it: read-out: Binding Ki (nM) A2b; Table 13.

Consider `Cc1[nH]c2nc(-c3cccs3)nc(N[C@H]3CC[C@H](O)CC3)c2c1C` (relative stereo), for which the Ki was found to be 168 nM.
